Assay [1] has as its target Sphingosine 1-phosphate receptor 2 (Homo sapiens) (UniProt O95136). Nature of the assay: Antagonist activity at human S1P2 receptor expressed in CHO-K1 cells assessed as reduction of S1P-induced [Ca2+] level at 10 uM relative to control. Type of assay: functional, cell-based. Set-up: scale not given: the % may be the effect or the level left.
The target of assay [2] is Sphingosine 1-phosphate receptor 1 (Homo sapiens) (UniProt P21453). Nature of the assay: Antagonist activity at human S1P1 receptor expressed in CHO-K1 cells assessed as reduction of S1P-induced [Ca2+] level at 10 uM relative to control. Type of assay: functional, cell-based. Set-up: scale not given: the % may be the effect or the level left.

Chains of the proteins cited; added tags and fusions are not shown. Lines headed by an entry give the natural chain unless they say otherwise; changes in a name come on top.
UniProt O95136: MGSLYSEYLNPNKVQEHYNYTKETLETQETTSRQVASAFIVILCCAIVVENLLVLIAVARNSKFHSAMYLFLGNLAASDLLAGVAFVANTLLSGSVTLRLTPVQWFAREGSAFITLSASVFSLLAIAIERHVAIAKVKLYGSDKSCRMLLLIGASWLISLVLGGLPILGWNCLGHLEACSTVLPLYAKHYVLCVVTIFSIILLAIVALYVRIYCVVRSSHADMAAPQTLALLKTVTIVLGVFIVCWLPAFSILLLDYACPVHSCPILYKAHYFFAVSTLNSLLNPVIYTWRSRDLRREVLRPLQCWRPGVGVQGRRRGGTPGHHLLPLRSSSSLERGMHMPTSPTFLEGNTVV
UniProt P21453, whole entry: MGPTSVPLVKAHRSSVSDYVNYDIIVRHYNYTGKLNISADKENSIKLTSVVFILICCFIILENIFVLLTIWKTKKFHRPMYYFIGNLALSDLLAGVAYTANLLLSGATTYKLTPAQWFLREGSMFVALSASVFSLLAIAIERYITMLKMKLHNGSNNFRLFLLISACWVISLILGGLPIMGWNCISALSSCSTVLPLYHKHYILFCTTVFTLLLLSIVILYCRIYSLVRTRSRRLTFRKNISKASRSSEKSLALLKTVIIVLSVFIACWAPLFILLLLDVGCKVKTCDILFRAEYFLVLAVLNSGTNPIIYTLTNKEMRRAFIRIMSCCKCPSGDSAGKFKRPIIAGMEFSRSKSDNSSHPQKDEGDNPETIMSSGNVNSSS

Each structure is given as a SMILES string.

In the case of `CC(C)(C)C(=O)/C(=N\Nc1ccc(Cl)cc1)Nc1cccc(F)c1`, the Activity in assay [1] was -11.1%; in assay [2] it was 22.4%.

For `CC(C)(C)C(=O)/C(=N/c1ccc(Cl)cc1)NNc1ccc(Cl)cc1`, the Activity in assay [1] was found to be 1.7%; in assay [2], 29.5%.

The values are drawn from ChEMBL document CHEMBL5576043, “Synthesis, radiosynthesis and biochemical evaluation of fluorinated analogues of sphingosine-1-phosphate receptor 3 specific antagonists using PET” (Bioorg Med Chem, 2024).
